Data: PubChem BioAssay AID463210 (The Scripps Research Institute Molecular Screening Center, 2010)
Only a part is listed here, and it is no random draw. The source made the active and inactive calls.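 The calls were made as follows: active = percent activation above the screen-wide mean plus 3 SD (cut at about 25% in these data); inactive = the rest.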

Chains of the proteins cited; added tags and fusions are not shown. Lines headed by an entry give the natural chain unless they say otherwise; changes in a name come on top.
UniProt P55210: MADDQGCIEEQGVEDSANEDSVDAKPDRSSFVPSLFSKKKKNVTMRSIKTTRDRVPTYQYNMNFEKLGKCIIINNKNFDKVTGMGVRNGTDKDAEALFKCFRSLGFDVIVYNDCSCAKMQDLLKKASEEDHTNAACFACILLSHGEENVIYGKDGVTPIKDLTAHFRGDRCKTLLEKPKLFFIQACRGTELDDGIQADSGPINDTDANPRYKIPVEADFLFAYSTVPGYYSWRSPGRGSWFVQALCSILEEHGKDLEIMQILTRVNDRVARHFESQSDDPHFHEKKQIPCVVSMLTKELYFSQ

target: Caspase-7 (Homo sapiens) (UniProt P55210); assay: activation of procaspase-7 enzyme – biochemical, absorbance, HTS, human, counter-screen for procaspase-3 activator project, primary screen (AID 463210); details: recombinant procaspase-7, Ac-DEVD-pNA absorbance 405 nm; at 8.5 µM; hits give high values; D23A/D198A/D206A triple mutant, cannot self-cleave; scale: DMSO 0, 5 µM enzyme 100

Structure (SMILES)	activation
O=P(Nc1ccccn1)(c1ccc(Br)cc1)c1ccc(Br)cc1	inactive: -2.29%
CN(C)C1(CNC(=O)c2ccc(Cl)c(S(N)(=O)=O)c2)CCCCC1	inactive: -10.8%
C[C@H]1OP(=O)(Oc2ccccc2)[C@H](O)[C@H](O)[C@H]1N=[N+]=[N-] (stereo partly specified)	inactive: 5.43%
O=P(Nc1nc2ccccc2s1)(c1ccccc1)c1ccccc1	inactive: 3.62%
O=[As](O)(c1ccccc1)c1ccc(O)cc1	inactive: 4.81%
O=[N+]([O-])c1ccc(O)c(/C=N/Nc2ccc([N+](=O)[O-])cc2[N+](=O)[O-])c1	inactive: 4.5%
O=[N+]([O-])c1ncn(CCn2cnc([N+](=O)[O-])n2)n1	inactive: 10.1%
CC(=O)NC(SC(=S)N(C)C)C(Cl)(Cl)Cl (stereo unspecified)	inactive: -7.29%
O=C(OC1CN2CCC1CC2)c1cccc(Cl)c1 (stereo unspecified)	inactive: 15.1%
Nc1ccc([As](=O)(O)c2ccc([N+](=O)[O-])cc2)cc1	inactive: 3.2%
C(Cc1nn[nH]n1)Cc1nn[nH]n1	inactive: -1.38%
CC(C)C(=O)NC(Sc1ccccc1)C(Cl)(Cl)Cl (stereo unspecified)	inactive: 1.12%
O=P(Nc1nccs1)(c1ccccc1)c1ccccc1	inactive: 7.75%
c1nnnn1CCn1cnnn1	inactive: -1.35%
CCOc1ccc(C2=NCC(CBr)S2)cc1 (stereo unspecified)	inactive: -11.2%
O=P1(Nc2nc3ccc(Cl)cc3s2)COc2ccccc2O1 (stereo unspecified)	inactive: 2.86%
CC(C)(C)C(=O)NC(Sc1ccccc1)C(Cl)(Cl)Cl (stereo unspecified)	inactive: 3.26%
C[C@@H]1C=CCP(=O)(Oc2ccccc2)O1 (stereo partly specified)	inactive: 2.24%
C[C@H]1OP(=O)(Oc2ccccc2)C[C@@H]2O[C@@H]21 (stereo partly specified)	inactive: 8.74%
Cc1ccccc1CN(C)C(=O)COC(=O)C(O)(c1ccccc1)c1ccccc1	inactive: -0.8%
CC(=O)c1ccc(N2CC2c2ccncc2)cc1 (stereo unspecified)	inactive: -6.85%
CC(=O)Nc1ccc(Oc2c([N+](=O)[O-])cc([N+](=O)[O-])cc2[N+](=O)[O-])cc1	inactive: -0.66%
CC(=O)Nc1ccc([As](=O)(O)O)c(O)c1	inactive: -0.74%
CCOC(=O)NC(Sc1ccccc1)C(Cl)(Cl)Cl (stereo unspecified)	inactive: -1.19%
Cc1ccc(NP(=O)(Oc2cccc(C)c2)Oc2cccc(C)c2)nc1	inactive: -5.7%
c1ccc(-c2nn[nH]n2)c(-c2nn[nH]n2)c1	inactive: -8.45%

Structure (SMILES)	activation
CCNC(=S)/N=C(\N)N[N+](=O)[O-]	inactive: 17%
O=C(NC1CCS(=O)(=O)C1)NP(=S)(Oc1ccccc1)Oc1ccccc1 (stereo unspecified)	inactive: 2.38%
CCC(=O)N1C2C3N(C(=O)CC)C1C1N(C(=O)CC)C(C(N1C(=O)CC)N3C(=O)CC)N2C(=O)CC	inactive: 4.95%
O=C(OC1CN2CCC1CC2)c1ccccc1 (stereo unspecified)	inactive: 0.01%
Cc1ccc(OP(=O)(Nc2ccccn2)Oc2ccc(C)cc2)cc1	inactive: 3.25%
CC(=O)NC(SC(=S)N(CC(C)C)CC(C)C)C(Cl)(Cl)Cl (stereo unspecified)	inactive: -9.84%
COC(=O)c1cc2c(s1)N=C(c1ccccc1)N(C)P2(=O)N1CCOCC1 (stereo unspecified)	inactive: 5.1%
CN(C)C(=O)Oc1noc2ccccc12	inactive: 13.6%
Cc1ccccc1OP(=O)(Nc1ccccn1)Oc1ccccc1C	inactive: -15.1%
CC(NC(=O)COC(=O)C(O)(c1ccccc1)c1ccccc1)c1ccccc1 (stereo unspecified)	inactive: 7.9%
O=P(Nc1nc2ccc(Cl)cc2s1)(c1ccccc1)c1ccccc1	inactive: 4.6%
O=C(O)c1ccccc1[As](=O)(O)O	inactive: -3.48%
CC(=O)Nc1ccc([As](=O)(O)O)cc1	inactive: -9.04%
Cc1ccc(NP(=O)(Oc2ccccc2F)Oc2ccccc2F)nc1	inactive: 10.6%
CN(C(=O)Cc1ccc(Cl)c(Cl)c1)[C@H]1CCCC[C@@H]1N1CCCC1	inactive: 5.06%
CCOP(=O)(Nc1ccccc1)OCC	inactive: 5.99%
Cc1cc(SC(NC(=O)c2ccc(F)cc2)C(Cl)(Cl)Cl)ncn1 (stereo unspecified)	inactive: -27.9%
O=[N+]([O-])c1cc([N+](=O)[O-])c(CCN2CCOCC2)c([N+](=O)[O-])c1	inactive: -4.8%
CCN(N=Nc1nonc1N)c1nonc1N	inactive: -0.65%
Cc1ccc(N/C(=N/P(=O)(N2CCOCC2)N2CCOCC2)N2CCOCC2)cc1	inactive: 5.11%
CN(C(=O)Cc1ccc(Cl)c(Cl)c1)[C@H]1CCCC[C@H]1N1CCCC1	inactive: 13.2%
NC(=O)c1cc([N+](=O)[O-])cc([N+](=O)[O-])c1N	inactive: -1.51%
Clc1ccc(Cl)c(NC2=NCC(CBr)S2)c1 (stereo unspecified)	inactive: 13.9%
CN1CCCC(OC(=O)C(c2ccccc2)c2ccccc2)C1 (stereo unspecified)	inactive: -0.58%
Cc1ccc(OP(=O)(Nc2nccs2)Oc2ccc(C)cc2)cc1	inactive: 2.93%
COc1ccccc1OP(=O)(Nc1ccc(C)cn1)Oc1ccccc1OC	inactive: -0.98%

Structure (SMILES)	activation
Cc1c2non([O-])c-2c(C)[n+](=O)[n+]1[O-]	inactive: -28.2%
O=C(NC(Sc1ccncn1)C(Cl)(Cl)Cl)c1ccccc1 (stereo unspecified)	inactive: -23.7%
Oc1ccccc1CNc1ccccn1	inactive: 1.61%
CC(C)CC(=O)NC(Sc1ccc(Cl)cc1)C(Cl)(Cl)Cl (stereo unspecified)	inactive: 0.65%
Nc1cc(N)c2nonc2c1[N+](=O)[O-]	inactive: -1.46%
COc1ccc(C2=NCC(CBr)S2)cc1 (stereo unspecified)	inactive: -21.1%
CCc1nc2c(n1)c1c(non1O)c1c2no[n+]1[O-]	inactive: -4.7%
O=[N+]([O-])c1cc([N+](=O)[O-])c(CCNc2ccccc2)c([N+](=O)[O-])c1	inactive: -8.19%
Cc1ccc(NP(=O)(Oc2ccccc2)Oc2ccccc2)nc1	inactive: -1.43%
O=[N+]([O-])c1cccc2n[nH]nc12	inactive: 15.2%
CC(=O)N1C2C3N(C(C)=O)C1C1N(C(C)=O)C(C(N1C(C)=O)N3C(C)=O)N2C(C)=O	inactive: 16.6%
CCN(/C(=N/P(=O)(N1CCOCC1)N1CCOCC1)N1CCOCC1)c1ccc(OC)cc1	inactive: -10.1%
C[N+]1=C2C=CC=CC=C2SC12C([N+](=O)[O-])=CC([N+](=O)[O-])=C[C-]2[N+](=O)[O-] (stereo unspecified)	inactive: -24%
Nc1ccc([As](=O)(O)c2ccc(N)cc2)cc1	inactive: 8.55%
CC1CCN(C(=O)Oc2c(Cl)cc(Cl)c3cccnc23)CC1	inactive: 11.6%
CN(C)C(=O)OCCc1n(C)cc[n+]1C	inactive: 12.7%
CC(C)=N/N=C(\N)N[N+](=O)[O-]	inactive: 1.9%
O=C(Nc1cc([As](=O)(O)O)ccc1O)c1ccccc1	inactive: -5.13%
O=[N+]([O-])c1ncn(CCn2ncnc2[N+](=O)[O-])n1	inactive: 2.76%
CC(C)(C)C(=O)NC(Sc1ccncn1)C(Cl)(Cl)Cl (stereo unspecified)	inactive: -46.6%
O=[N+]([O-])c1cccc(NC2=NCC(CBr)S2)c1 (stereo unspecified)	inactive: -6.89%
CCOC(=O)Nc1ccc([As](=O)(O)O)c(O)c1	inactive: 1.66%
Cc1cc(SC(NC(=O)c2ccccc2)C(Cl)(Cl)Cl)nc(C(C)C)n1 (stereo unspecified)	inactive: -33.9%
CCOC(=O)Nc1cccc([As](=O)(O)O)c1	inactive: -3.39%
O=P(Nc1ccccn1)(c1cccc2ccccc12)c1cccc2ccccc12	inactive: -6.28%
Cc1cc(SC(NC=O)C(Cl)(Cl)Cl)ncn1 (stereo unspecified)	inactive: -27.3%

Structure (SMILES)	activation
COP1(=S)c2c(C)nn(CCC#N)c2N=C(c2ccc(F)cc2)N1C (stereo unspecified)	inactive: -2.82%
O=C(Nc1ccncc1[N+](=O)[O-])c1ccc([N+](=O)[O-])cc1[N+](=O)[O-]	inactive: 0.02%
O=C(COc1ccccc1)OC1CN2CCC1CC2 (stereo unspecified)	inactive: -2.9%
O=C(OC1CN2CCC1CC2)c1cccc([N+](=O)[O-])c1 (stereo unspecified)	inactive: 6.24%
CCOC(=O)c1ccc(NC(=O)C(C)(CCl)SC)cc1 (stereo unspecified)	inactive: 12.9%
CCC(C)N(CC(C)C)C(=S)SC(NC(C)=O)C(Cl)(Cl)Cl (stereo unspecified)	inactive: 6.78%
Cc1c2c(nc3ccccc13)SC(C(Cl)Cl)C2 (stereo unspecified)	inactive: 5.97%
Cc1cc(=O)[nH]c(N[N+](=O)[O-])n1	inactive: -9.51%
O=C(OC1CN2CCC1CC2)C12CC3CC(CC(C3)C1)C2 (stereo unspecified)	inactive: 4.56%
COc1cc(I)ccc1[As](=O)(O)O	inactive: -7.85%
COc1ccc2nc(NP(=O)(c3ccccc3)c3ccccc3)sc2c1	inactive: -0.71%
COc1ccc(N/C(=N/P(=O)(N2CCOCC2)N2CCOCC2)N2CCOCC2)cc1	inactive: 2.75%
COc1cc(C(=O)NCC2(N3CCOCC3)CCCCC2)ccc1OCC(C)C	inactive: 0.77%
C[As](=O)(O)c1cccc(C(=O)O)c1	inactive: 0.73%
O=[As](O)(c1ccc(O)cc1)c1ccccc1O	inactive: 8.11%
Cc1ccc(OP(=O)(Nc2ccc([N+](=O)[O-])cn2)Oc2ccc(C)cc2)cc1	inactive: 5.78%
Cc1ccc2nc3c(c(C)c2c1)CC(C(Cl)Cl)S3 (stereo unspecified)	inactive: -12.8%
ClCCSc1nnc(-c2cccnc2)o1	inactive: 0.09%
CC(C)c1ccc(OP(=O)(Nc2ccccn2)Oc2ccccc2F)cc1 (stereo unspecified)	inactive: 1.57%
O=[N+]([O-])c1cc([N+](=O)[O-])c(-c2ccn[nH]2)s1	inactive: -3.78%
CCN(CC)C(=S)SC(NC=O)C(Cl)(Cl)Cl (stereo unspecified)	inactive: 0.89%
CC(C)NC(=O)NP(=O)(Oc1ccccc1)Oc1ccccc1	inactive: 1.13%
O=P(Nc1nccs1)(c1ccccc1)c1nc2ccccc2s1 (stereo unspecified)	inactive: -20.9%
